Assay results from ChEMBL document CHEMBL1131316, “Potent antagonists of somatostatin: synthesis and biology” (J Med Chem, 1998).

The chains behind the UniProt entries cited, without tags or fusion partners. Where a name states a change or a piece, a line headed by the entry shows the natural chain unless it says otherwise.
UniProt P31391: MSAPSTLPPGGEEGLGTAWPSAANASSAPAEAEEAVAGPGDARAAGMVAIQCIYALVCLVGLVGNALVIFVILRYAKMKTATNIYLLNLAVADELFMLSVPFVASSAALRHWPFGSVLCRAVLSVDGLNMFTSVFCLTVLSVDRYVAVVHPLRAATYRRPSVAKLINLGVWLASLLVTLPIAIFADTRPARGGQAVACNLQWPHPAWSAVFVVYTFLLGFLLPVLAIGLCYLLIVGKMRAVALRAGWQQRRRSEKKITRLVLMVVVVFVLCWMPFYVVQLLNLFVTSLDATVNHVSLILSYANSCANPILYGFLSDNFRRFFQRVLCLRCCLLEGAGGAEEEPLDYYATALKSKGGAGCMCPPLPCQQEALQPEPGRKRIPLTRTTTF

Molecular target: Somatostatin receptor type 4 (Homo sapiens, UniProt P31391)
Assay: Binding affinity towards cloned human somatostatin 4 (hsst) receptor

Q: Which IC50 does the source give for `C[C@@H](O)[C@@H]1NC(=O)[C@H](CCCCN)NC(=O)[C@@H](Cc2c[nH]c3ccccc23)NC(=O)[C@H](Cc2ccccc2)NC(=O)[C@H](Cc2ccccc2)NC(=O)[C@H](N)CSSC[C@H](C(N)=O)NC(=O)[C@H](Cc2ccccc2)NC1=O` here?
A: 406 nM
